Experimental data reported in patent US5866397A, “Human protein tyrosine phosphatase OB protein” (Merck & Co., Inc., priority 1997, dated 1999).
Where two headings read alike, the source gives them in different places.

What was measured:
[1] = system: bone cells / osteoblasts; settings: literature (Lau et al.), cited from earlier work
[2] = system: mononucleated TRAP positive cells; assay: Formation of mononucleated TRAP positive cells in the co-culture; type: cell-based, mouse; settings: orthovanadate 10 μM or phenylarsine oxide 0.2 μM

| Compound | synthesis of bone collagen [1] | synthesis of bone collagen ([1]; listed as vanadate) | formation of mononucleated TRAP positive cells [2] |
| --- | --- | --- | --- |
| orthovanadate | stimulation of cell proliferation and the synthesis of bone collagen | stimulated cell proliferation and the synthesis of bone collagen |  |
| O=[As]c1ccccc1 (stereo not drawn) |  |  | produced mononucleated TRAP positive cells |
